These results are taken from patent US20240294543A1, “CYCLOHEPTA-THIENO-DIAZEPINE DERIVATIVES AS GABA A GAMMA1 PAM” (Hoffmann-La Roche Inc., priority 2021, published 2024).

The target in test [1] is human GABAA α1β3γ2 receptor (Homo sapiens (Human), UniProt P14867+P18507). Kind of test: Radioligand binding assay, competition for [3H]Flumazenil, γ2-containing GABAA subtypes.
Test [2] addresses human GABAA α2β2γ1 receptor (Homo sapiens (Human), UniProt P47869+Q8N1C3). Kind of test: Radioligand binding assay, competition for [3H]RO7239181, γ1-containing GABAA subtypes. Particulars: read-out: Ki h-GABAA α2β2γ1; Table 3, reference compounds and examples.

`Cc1nnc2n1-c1sc3c(c1C(c1ccccc1Cl)=NC2)CCCC3`: in test [1] (Ki α1β3γ2 (nM)/Ki α2β2γ1 (nM), Table 3), the γ2/γ1 Selectivity Ratio is 0.922. This molecule gave a LogSel in test [1] (Log[Ki α1β3γ2 (nM)/Ki α2β2γ1 (nM)], Table 3) of −0.035. In addition, the Ki in test [1] (read-out: Ki h-GABAA α1β3γ2, Table 3, reference compounds and examples) was determined as 48.5 nM; in test [2] it was 52.6 nM.
